Holding throughout (assay): Kinase panel profiling at 1 µmol/L (mobility shift assay, Carna)
What all share (format): biochemical
Conditions in all cases: 1 µmol/L of BTK inhibitor

Protein sequences, listed by entry. Tags and fused reporters are not part of them. Residues count along the entry.
UniProt P06241, whole entry: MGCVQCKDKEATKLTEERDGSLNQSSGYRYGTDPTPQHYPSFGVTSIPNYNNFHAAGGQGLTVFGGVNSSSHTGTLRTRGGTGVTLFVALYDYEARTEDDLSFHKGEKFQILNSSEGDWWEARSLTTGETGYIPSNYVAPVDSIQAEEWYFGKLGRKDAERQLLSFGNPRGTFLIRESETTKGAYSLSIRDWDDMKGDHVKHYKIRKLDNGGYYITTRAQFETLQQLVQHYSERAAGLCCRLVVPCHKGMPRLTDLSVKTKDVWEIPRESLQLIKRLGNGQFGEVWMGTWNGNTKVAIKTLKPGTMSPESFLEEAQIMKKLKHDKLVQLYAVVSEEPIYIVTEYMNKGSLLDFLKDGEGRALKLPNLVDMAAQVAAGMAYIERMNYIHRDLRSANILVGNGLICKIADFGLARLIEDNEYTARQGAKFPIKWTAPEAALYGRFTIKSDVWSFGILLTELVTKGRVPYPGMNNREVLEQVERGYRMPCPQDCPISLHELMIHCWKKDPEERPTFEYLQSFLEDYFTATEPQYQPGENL
UniProt P06241, 1-534 isoform P06241-2: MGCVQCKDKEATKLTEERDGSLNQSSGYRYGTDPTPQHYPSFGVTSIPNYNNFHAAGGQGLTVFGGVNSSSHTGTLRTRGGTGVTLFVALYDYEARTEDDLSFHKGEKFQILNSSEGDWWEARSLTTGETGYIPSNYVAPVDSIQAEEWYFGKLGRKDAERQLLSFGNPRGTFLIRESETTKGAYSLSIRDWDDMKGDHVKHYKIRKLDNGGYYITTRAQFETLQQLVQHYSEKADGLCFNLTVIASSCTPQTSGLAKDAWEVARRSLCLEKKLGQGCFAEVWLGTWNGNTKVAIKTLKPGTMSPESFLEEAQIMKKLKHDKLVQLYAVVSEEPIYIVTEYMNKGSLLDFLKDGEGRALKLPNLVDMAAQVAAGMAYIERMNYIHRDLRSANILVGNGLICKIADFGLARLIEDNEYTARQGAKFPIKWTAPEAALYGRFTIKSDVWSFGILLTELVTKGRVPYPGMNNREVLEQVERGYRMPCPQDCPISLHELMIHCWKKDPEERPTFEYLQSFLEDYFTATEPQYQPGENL

One assay deals with T1, SRC (Homo sapiens, UniProt P12931).
T1 construct: purchased Carna Biosciences

Another assay addresses T2, FYN [isoform a] (Homo sapiens, UniProt P06241).
T2 construct: purchased Carna Biosciences

A further assay concerns the target T3, FYN [isoform b] (Homo sapiens, UniProt P06241).
T3 construct: purchased Carna Biosciences

For `O=C(c1ccc(Oc2ccccc2)cc1Cl)c1c[nH]c2ncnc(N[C@@H]3CC[C@@H](CO)OC3)c12` [nemtabrutinib], the figures for the “Percentage inhibition of kinase enzyme activity” value at SRC, on FYN [isoform a] and on FYN [isoform b] were 99.34%, 100.28% and 99.62%, respectively.

Source of the values: PMC12586182 (Frontiers in Oncology, 2025).
